# Measurements as given in paper PMC10721916.
# Target: filamentous (F)-actin (rabbit) (UniProt P68135)
# Assay: co-sedimentation; high-speed F-actin co-sedimentation: 10 uM Vt and 20 uM F-actin in actin polymerization buffer (10 mM Tris, 200 mM KCl, 10 mM imidazole, 2.5 mM MgCl2, 1 mM EGTA, 2 mM DTT, pH 7.5), 1 h at room temperature, 185,000x g for 60 min; fraction of Vt in the pellet by SDS-PAGE …
row,reduction of F-actin binding against WT Vt [%],Substance
1,2,vinculin tail domain (Vt) E1015A (domain or fragment)
2,20,vinculin tail domain (Vt) I997A (domain or fragment)
3,2,vinculin tail domain (Vt) E1021A (domain or fragment)
